Experimental findings from ChEMBL document CHEMBL1129998, “Pharmacological options in the treatment of benign prostatic hyperplasia” (J Med Chem, 1997) are described below.

For this assay, the target named is T1, Alpha-1A adrenergic receptor (Homo sapiens, UniProt P35348).
T1 sequence (P35348 whole entry): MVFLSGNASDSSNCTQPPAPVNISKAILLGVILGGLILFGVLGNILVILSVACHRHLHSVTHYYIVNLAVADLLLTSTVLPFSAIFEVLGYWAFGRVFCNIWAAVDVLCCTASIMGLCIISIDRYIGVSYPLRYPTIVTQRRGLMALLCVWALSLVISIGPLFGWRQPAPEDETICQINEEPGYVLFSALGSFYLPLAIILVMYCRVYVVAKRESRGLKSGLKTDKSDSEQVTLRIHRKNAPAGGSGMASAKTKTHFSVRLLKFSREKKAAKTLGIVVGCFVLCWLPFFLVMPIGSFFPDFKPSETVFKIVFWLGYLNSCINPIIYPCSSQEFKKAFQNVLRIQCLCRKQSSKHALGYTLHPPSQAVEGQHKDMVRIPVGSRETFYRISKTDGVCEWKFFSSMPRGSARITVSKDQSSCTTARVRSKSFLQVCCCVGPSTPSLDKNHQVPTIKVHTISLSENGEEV
As to the kind of experiment: Binding affinity was tested on human Alpha-1A adrenergic receptor.

As for `COc1ccccc1N1CCN(CCN2C(=O)CC3(CCCC3)CC2=O)CC1`, the Ki is 251 nM.
